Earlier results as cited in patent publication US20140248635A1, “ALPHA-TUBULIN […]” (University of Georgia Research Foundation, Inc., priority 2010, published 2014).

Target: T1, HDAC6 (Homo sapiens, UniProt Q9UBN7)
T1 sequence (Q9UBN7 1-1215): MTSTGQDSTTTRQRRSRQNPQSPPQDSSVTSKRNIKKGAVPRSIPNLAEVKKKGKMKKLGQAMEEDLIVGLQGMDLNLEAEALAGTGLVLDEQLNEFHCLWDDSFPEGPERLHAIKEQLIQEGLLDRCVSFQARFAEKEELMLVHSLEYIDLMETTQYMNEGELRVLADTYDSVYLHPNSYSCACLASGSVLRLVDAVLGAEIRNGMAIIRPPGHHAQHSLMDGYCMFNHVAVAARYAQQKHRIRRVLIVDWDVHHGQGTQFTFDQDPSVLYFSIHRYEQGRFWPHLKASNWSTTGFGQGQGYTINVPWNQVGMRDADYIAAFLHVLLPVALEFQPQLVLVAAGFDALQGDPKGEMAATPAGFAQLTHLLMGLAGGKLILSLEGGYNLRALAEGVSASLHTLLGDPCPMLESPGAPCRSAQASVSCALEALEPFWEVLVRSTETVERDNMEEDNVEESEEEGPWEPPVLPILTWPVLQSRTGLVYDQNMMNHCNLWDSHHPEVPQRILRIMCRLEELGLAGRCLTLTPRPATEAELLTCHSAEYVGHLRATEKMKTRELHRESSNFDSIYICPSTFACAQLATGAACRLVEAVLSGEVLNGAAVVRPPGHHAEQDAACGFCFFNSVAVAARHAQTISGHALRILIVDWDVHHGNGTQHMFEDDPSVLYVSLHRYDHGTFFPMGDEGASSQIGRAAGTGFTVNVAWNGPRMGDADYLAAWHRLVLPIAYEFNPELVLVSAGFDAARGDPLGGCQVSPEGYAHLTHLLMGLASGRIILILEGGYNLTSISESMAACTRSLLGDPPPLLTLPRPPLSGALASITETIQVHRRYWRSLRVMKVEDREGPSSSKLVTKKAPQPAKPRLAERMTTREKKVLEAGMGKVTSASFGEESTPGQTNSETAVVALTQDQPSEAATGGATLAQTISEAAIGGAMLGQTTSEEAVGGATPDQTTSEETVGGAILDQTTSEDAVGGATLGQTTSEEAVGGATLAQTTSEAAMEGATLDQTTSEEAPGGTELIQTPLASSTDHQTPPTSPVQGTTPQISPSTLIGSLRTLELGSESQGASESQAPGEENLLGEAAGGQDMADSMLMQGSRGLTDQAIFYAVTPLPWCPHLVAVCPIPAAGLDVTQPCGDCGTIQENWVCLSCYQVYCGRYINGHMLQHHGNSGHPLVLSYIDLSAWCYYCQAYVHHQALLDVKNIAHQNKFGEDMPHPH
Settings: cited from earlier work

CC(/C=C/C(=O)NO)=C\[C@@H](C)C(=O)c1ccc(N(C)C)cc1 [trichostatin A]
inhibition of HDAC6: a broad inhibitor of deacetylases
